GIV-Gai inh = inhibitors of GIV GBA-motif binding to rat Galpha-i3; P08753; Galpha-i3/FITC-GIV peptide fluorescence polarization, 90 min; hits give low values; scaled: aluminum fluoride 0%, vehicle 100%; percent of control (FP), % (test concentration not listed); AID 1224905; hit rate 0.42% among 210,000;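 active = replicate mean at 85% of control or lower, very high polarization wells dropped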;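 note: wells of about 15 µL received 100 nL stock; the first replicate is given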
HCMV NEC inh = cytomegalovirus nuclear egress complex inhibition; HTRF UL50-UL53 interaction, normalized percent inhibition; inhibition, % (test concentration not listed); 190,000 tested, 0.15% active; in the data active = inhibition above about 27%, passing the limit was not always enough
GIV-Gai FP conf = confirmation of inhibitors of GIV binding to rat Galpha-i3; fluorescence polarization, mP at 100 µM; shares compounds with GIV-Gai inh; AID 1259350; 580 tested, 38% active; FITC-GIV peptide binding to Galphai3, fluorescence polarization; stronger effect = lower value;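 active = inhibition score of 15 or more, meaning 100 minus mean polarization as percent of control over three replicates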
GIV Gai AS conf = confirmation of inhibitors of GIV binding to human Galpha-i3; shares compounds with GIV-Gai inh; AlphaScreen Galphai3-GIV binding, purified proteins, 90 min; stronger effect = lower value; AlphaScreen counts at 100 µM; 580 tested, 39% active; AID 1259351;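 active = inhibition score at or above a set limit, where the score is 100 minus the three-replicate mean percent of control signal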
* hit, by the source's call; . = not tested or not shown. This is one part of a sample in which hits are shown more often than they occur.

Structure,GIV-Gai inh,HCMV NEC inh,GIV-Gai FP conf,GIV Gai AS conf
O=C1CCCC2=C1C1(O)C(=O)c3ccccc3C1(O)O2 (centres undefined),59*,78*,54*,53411
Nc1ccc2c(c1)OC1(O)c3ccccc3C(=O)C21O (centres undefined),.,-20,.,.
CCOc1ccc(-c2nc(-c3oc4ccc(C)cc4c3C)no2)cc1,99,.,.,.
COC(=O)c1cc(C(=O)Nc2ccc(C)cc2)c(=O)[nH]c1C,105,4,.,.
COC(=O)c1cc(C(=O)Nc2ccc(Cl)cc2)c(=O)[nH]c1C,106,-13,81,29055
Cc1ccc(-c2nc3ccccc3o2)cc1NC(=O)Cc1ccc(Cl)cc1,109,-60,.,.
Cc1ccc2c(c1)-c1c(c(C(=O)N3CCN(c4cc(C)ccc4C)CC3)nn1C)CS2,42*,.,36*,26353
Cn1nc(C(=O)N2CCN(c3ccc(Cl)cc3)CC2)c2c1-c1ccccc1SC2,100,-16,.,.

(more compounds)
Structure,GIV-Gai inh,HCMV NEC inh,GIV-Gai FP conf,GIV Gai AS conf
Cc1cc(C)n2nc(CNS(=O)(=O)c3ccc(F)cc3)nc2n1,104,11,.,.
COc1ccc2c(C)[nH]c(=O)cc2c1,104,.,.,.
CCCc1[nH]c(=O)cc2cc(OC)c(OC)cc12,77*,42,58,23102*
COC(=O)c1sccc1NC(=O)c1ccc2ncccc2c1,97,-8,.,.
COC(=O)c1c(N)sc2c1CCCC2,107,-8,.,.
COC(=O)c1[nH]c2sc3c(c2c1N)CCCC3,20*,-2,39*,8300*
CCOC(=O)c1[nH]c2sc(C)c(C)c2c1N,83*,-14,73,8984*
CCOC(=O)c1c(N)sc(C)c1C,.,-13,.,.

2 entries from above, with values under each structure.
Values run as follows: GIV-Gai inh | HCMV NEC inh | GIV-Gai FP conf | GIV Gai AS conf
COc1ccc2c(C)[nH]c(=O)cc2c1
→ 104 | . | . | .
CCCc1[nH]c(=O)cc2cc(OC)c(OC)cc12
→ 77* | 42 | 58 | 23102*

Remaining list, next part.
Structure,GIV-Gai inh,HCMV NEC inh,GIV-Gai FP conf,GIV Gai AS conf
C/C(=N/NC(=O)C(F)(F)F)c1cccs1,104,-7,.,.
C/C(=N\NC(=O)C(F)(F)F)c1ccccc1O,94,3,72,56622
C/C(=N\O)C(=O)NCc1cccnc1,103,-2,.,.
CCc1ccc(S(=O)(=O)N(C(=O)c2ccccc2)c2ccc3oc(C)c(C(C)=O)c3c2)cc1,117,.,.,.
Oc1ccc(NCc2cccs2)cc1,104,-10,.,.
Cc1ccc(CNc2ccc(O)cc2)s1,75*,21,50*,9116*
COc1ccc(NC(=O)CC2C(=O)N(c3cccc(OC)c3)C(=O)N2Cc2cccnc2)cc1 (centres undefined),108,.,.,.
N#CCc1c(C#N)c(N)nc(SC(=N)N)c1C#N,.,-43,.,.

3 of the entries above in order of the GIV-Gai FP conf value, rising.
SMILES	GIV-Gai FP conf
Cc1ccc(CNc2ccc(O)cc2)s1	50*
O=C1CCCC2=C1C1(O)C(=O)c3ccccc3C1(O)O2 (centres undefined)	54*
CCCc1[nH]c(=O)cc2cc(OC)c(OC)cc12	58

Next section:
Structure,GIV-Gai inh,HCMV NEC inh,GIV-Gai FP conf,GIV Gai AS conf
O=C1CCCC2=C1C(c1ccc(Cl)cc1)Nc1ccccc1N2 (centres undefined),101,-21,.,.
CC(=Nc1ccccc1Br)c1sc2ccccc2c1O,72*,-23,62,63874
CC(=Nc1ccccc1O)c1sc2ccccc2c1O,127,-59,.,.
CC(C)(C)NS(=O)(=O)c1ccc2c(c1)CCN2,97,.,.,.
O=C(O)c1cccc(NC(=O)c2ccccc2C(=O)O)c1,100,-13,.,.
O=C(O)c1ccc(C(=O)Nc2cccc(Cl)c2)c(C(=O)O)c1,64*,-40,62*,34772
Cc1ccccc1NC(=O)CSC1=C(C#N)C(c2ccc(C(C)C)cc2)CC(=O)N1 (centres undefined),103,.,.,.
CCC(C)C(=O)N1c2cc(C)c(C)cc2-c2c(ssc2=S)C1(C)C (centres undefined),106,.,.,.

Carrying on.
Structure,GIV-Gai inh,HCMV NEC inh,GIV-Gai FP conf,GIV Gai AS conf
Cc1cc2c(cc1C)N(C(=O)C(C)C)C(C)(C)c1ssc(=S)c1-2,93,.,68,45573
COc1cc(/C=C2\SC(=Nc3cc(C)cc(C)c3)NC2=O)ccc1O,129,5,.,.
Cc1ccccc1NC(=O)c1sc2nc(-c3cc4ccccc4oc3=O)[nH]c(=O)c2c1C,71*,6,38*,23058
Cc1ccccc1NC(=O)c1cc2ccccc2o1,100,.,.,.
CCN1C(=O)c2cccc3c(NC(=S)NC(=O)c4ccc(S(=O)(=O)N5CCCC5)cc4)ccc1c23,107,.,.,.
CCN1C(=O)c2cccc3c(NC(=O)c4ccc(S(=O)(=O)N5CCCC5)cc4)ccc1c23,89,.,79,47241
Cc1ccc(S(=O)(=O)N2CCOCC2)cc1C(=O)NC(=S)Nn1cnnc1,.,-19,.,.
CCOC(=O)N1CCN(c2ncc3c(n2)CC(c2ccccc2O)CC3=O)CC1 (centres undefined),105,-39,.,.
CC1(C)CC(=O)C2=C(C1)Nc1ccccc1S2,78*,-52,70,61627
CC1(C)CC(=O)C2=C(C1)Nc1ccccc1NC2c1ccccc1F (centres undefined),103,1,.,.
CO[C@H]1/C=C/O[C@@]2(C)Oc3c(C)c(O)c4c(O)c(c5c(c4c3C2=O)NC2(CCN(CC(C)C)CC2)N=5)=NC(=O)/C(C)=C\C=C\[C@H](C)[C@H](O)[C@@H](C)[C@@H](O)[C@@H](C)[C@H](OC(C)=O)[C@@H]1C,.,-179,.,.
